According to US5011930A, “Quinoline type mevalonolactones” (Nissan Chemical Industries Ltd., priority 1987, dated 1991):

System: cholesterol biosynthesis in Hep G2 cells
Test: Test B-1: Inhibition of cholesterol biosynthesis in culture cells (Hep G2)
Assay type: cell-based
Conditions: Homo sapiens, HepG2, [2-^14 C]sodium acetate added at 0 hr after addition of compounds, 4 hrs incubation, read-out: Inhibitory activities by Test B-1: I50 (molar concentration)
Protocol: Hep G2 cells at over 5th passage were seeded to 12 well plates and incubated with Dulbecco's modified Eagle (DME) medium containing 10% of fetal bovine serum (FBS) at 37° C., 5% CO2 until cells were confluent for about 7 days. Cells were exposed to the DME medium containing 5% of lipoprotein deficient serum (LpDS) prepared by ultracentrifugation method for over 24 hours. Medium was changed to 0.5 ml of fresh 5% LpDS containing DME before assay and 10 μl of test compound solution dissolved in water or DMSO were added. 0.2 μCi of [2-^14 C]sodium acetate (20 μl) was added at 0 hr(B-1) or 4 hrs(B-2) after addition of compounds. After 4 hrs further incubation with [2-^14 C]sodium acetate, medium was removed and cells were washed with phosphate buffered saline(PBS) chilled at 4° C. Cells were scraped with rubber policeman and collected to tubes with PBS and digested with 0.2 ml of 0.5 N KOH at 37° C. Aliquot of digestion was used for protein analysis and remaining was saponified with 1 ml of 15% EtOH--KOH at 75° C. for 1 hour. […] Counts were revised by cell protein and indicated with DPM/mg protein. Inhibitory activity of compounds was indicated with IC50.

CC[C@H](C)C(=O)O[C@H]1C[C@H](O)C=C2C=C[C@H](C)[C@H](CC[C@@H](O)C[C@@H](O)CC(=O)O)[C@H]21 [CS-514, reference compound] was tested, and the IC50 was 350 nM.
